ChEMBL document CHEMBL2311454, “Discovery and evaluation of novel inhibitors of mycobacterium protein tyrosine phosphatase B from the 6-Hydroxy-benzofuran-5-carboxylic acid scaffold” (J Med Chem, 2013)

Amino acid sequences for entries named in this document (tags omitted). A change or cut given only in a name is not applied to a line headed by its entry.
UniProt P29350: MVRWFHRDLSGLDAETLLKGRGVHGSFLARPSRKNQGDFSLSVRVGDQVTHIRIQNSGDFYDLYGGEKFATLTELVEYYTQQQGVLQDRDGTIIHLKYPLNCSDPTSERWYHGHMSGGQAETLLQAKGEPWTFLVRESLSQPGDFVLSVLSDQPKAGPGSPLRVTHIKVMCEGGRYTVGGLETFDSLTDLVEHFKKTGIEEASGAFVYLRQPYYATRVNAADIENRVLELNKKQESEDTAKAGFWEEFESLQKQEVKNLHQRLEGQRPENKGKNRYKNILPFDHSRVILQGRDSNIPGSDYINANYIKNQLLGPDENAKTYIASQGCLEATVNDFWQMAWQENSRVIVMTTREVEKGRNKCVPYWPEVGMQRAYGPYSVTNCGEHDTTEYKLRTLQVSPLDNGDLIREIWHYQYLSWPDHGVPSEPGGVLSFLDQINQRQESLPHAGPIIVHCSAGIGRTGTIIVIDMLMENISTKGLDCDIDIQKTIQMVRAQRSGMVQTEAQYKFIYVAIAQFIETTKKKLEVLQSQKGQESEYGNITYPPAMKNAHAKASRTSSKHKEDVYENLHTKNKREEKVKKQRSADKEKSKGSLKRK

Experiments:
[1] = molecular target: Tyrosine-protein phosphatase non-receptor type 6 (Homo sapiens, UniProt P29350); assay: Inhibition of SHP1 (unknown origin) expressed in Escherichia coli using pNPP substrate after 5 mins by spectrophotometric analysis
[2] = Inhibition of Mycobacterium tuberculosis PTPB expressed in Escherichia coli using pNPP substrate after 5 mins by spectrophotometric analysis
[3] = molecular target: T1, Receptor-type tyrosine-protein phosphatase C (Homo sapiens, UniProt P08575); assay: Inhibition of CD45 (unknown origin) expressed in Escherichia coli using pNPP substrate after 5 mins by spectrophotometric analysis
T1 sequence (P08575 whole entry): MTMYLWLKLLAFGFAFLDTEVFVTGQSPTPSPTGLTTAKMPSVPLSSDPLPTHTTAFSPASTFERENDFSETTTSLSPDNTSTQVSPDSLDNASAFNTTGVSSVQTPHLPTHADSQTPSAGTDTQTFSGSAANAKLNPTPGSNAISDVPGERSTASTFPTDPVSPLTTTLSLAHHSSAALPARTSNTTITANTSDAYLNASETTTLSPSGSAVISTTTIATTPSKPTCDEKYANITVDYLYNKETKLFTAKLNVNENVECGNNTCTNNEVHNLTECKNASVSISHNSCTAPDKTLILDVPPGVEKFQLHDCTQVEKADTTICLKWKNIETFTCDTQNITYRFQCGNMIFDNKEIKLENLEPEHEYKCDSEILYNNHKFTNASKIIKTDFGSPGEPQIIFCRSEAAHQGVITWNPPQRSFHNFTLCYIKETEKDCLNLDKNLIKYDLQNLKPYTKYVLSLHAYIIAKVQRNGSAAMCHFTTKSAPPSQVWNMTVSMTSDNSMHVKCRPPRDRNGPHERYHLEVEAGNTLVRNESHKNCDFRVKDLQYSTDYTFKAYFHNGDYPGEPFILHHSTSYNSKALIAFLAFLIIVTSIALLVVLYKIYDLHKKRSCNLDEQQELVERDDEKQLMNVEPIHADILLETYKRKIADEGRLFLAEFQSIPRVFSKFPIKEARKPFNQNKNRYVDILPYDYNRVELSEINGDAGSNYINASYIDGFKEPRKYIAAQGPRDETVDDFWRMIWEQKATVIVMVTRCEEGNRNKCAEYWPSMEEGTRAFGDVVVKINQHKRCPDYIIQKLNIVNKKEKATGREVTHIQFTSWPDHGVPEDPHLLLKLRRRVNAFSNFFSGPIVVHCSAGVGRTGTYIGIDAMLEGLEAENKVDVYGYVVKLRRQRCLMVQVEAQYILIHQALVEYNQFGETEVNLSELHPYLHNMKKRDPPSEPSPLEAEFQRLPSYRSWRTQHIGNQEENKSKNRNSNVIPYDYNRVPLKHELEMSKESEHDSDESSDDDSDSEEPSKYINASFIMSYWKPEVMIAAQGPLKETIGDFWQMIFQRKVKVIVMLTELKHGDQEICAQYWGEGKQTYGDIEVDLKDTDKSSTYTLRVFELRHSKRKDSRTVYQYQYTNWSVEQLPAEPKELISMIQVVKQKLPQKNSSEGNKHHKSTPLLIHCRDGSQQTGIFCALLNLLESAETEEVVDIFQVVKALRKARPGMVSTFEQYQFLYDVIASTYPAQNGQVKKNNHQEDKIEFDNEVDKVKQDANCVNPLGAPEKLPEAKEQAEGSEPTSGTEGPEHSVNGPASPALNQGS

[4] = molecular target: T2, Tyrosine-protein phosphatase non-receptor type 1 (Homo sapiens, UniProt P18031); assay: Inhibition of PTP1B (unknown origin) expressed in Escherichia coli using pNPP substrate after 5 mins by spectrophotometric analysis
T2 sequence (P18031 whole entry): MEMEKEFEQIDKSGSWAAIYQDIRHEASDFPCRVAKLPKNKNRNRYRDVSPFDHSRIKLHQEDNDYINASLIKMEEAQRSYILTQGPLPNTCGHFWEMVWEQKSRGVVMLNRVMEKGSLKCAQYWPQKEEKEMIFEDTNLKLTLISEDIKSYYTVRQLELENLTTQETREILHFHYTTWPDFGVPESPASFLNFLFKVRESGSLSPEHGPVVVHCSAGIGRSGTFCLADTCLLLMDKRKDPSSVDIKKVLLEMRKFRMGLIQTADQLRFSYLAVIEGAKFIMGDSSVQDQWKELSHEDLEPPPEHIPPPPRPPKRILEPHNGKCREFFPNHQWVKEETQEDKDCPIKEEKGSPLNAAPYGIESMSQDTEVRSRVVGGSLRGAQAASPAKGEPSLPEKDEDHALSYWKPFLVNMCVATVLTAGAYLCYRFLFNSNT

[5] = molecular target: T3, Tyrosine-protein phosphatase non-receptor type 9 (Homo sapiens, UniProt P43378); assay: Inhibition of PTPMEG2 (unknown origin) expressed in Escherichia coli using pNPP substrate after 5 mins by spectrophotometric analysis
T3 sequence (P43378 whole entry): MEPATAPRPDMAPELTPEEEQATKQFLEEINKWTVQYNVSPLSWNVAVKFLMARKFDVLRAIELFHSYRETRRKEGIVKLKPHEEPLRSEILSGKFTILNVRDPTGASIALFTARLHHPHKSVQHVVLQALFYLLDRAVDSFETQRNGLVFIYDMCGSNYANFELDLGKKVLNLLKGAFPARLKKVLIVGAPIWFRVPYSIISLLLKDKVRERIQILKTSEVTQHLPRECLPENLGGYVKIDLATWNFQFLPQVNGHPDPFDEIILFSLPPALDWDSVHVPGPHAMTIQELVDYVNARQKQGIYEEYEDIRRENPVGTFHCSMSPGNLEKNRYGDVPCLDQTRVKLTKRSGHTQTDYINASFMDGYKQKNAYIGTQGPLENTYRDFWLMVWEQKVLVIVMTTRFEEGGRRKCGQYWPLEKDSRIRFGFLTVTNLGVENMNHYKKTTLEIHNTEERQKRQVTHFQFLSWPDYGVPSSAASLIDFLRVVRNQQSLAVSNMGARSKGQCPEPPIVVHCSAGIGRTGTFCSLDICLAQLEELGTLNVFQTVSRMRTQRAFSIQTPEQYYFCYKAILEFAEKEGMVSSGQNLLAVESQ

Structure (SMILES)	IC50 [1]	IC50 [2]	IC50 [3]	IC50 [4]	IC50 [5]
O=C(O)c1cc2c(/C=C\c3cc(F)cc(F)c3)c(-c3ccccc3)oc2cc1O	5.7 µM				
O=C(O)c1cc2c(/C=C\c3ccc(OC(F)(F)F)cc3)c(-c3ccccc3)oc2cc1O		1.2 µM	11.6 µM	12 µM	11.4 µM
